Target: Adenosine receptor A1 (Cavia porcellus, UniProt P47745)

Chains of the proteins cited; added tags and fusions are not shown.
UniProt P47745, whole entry: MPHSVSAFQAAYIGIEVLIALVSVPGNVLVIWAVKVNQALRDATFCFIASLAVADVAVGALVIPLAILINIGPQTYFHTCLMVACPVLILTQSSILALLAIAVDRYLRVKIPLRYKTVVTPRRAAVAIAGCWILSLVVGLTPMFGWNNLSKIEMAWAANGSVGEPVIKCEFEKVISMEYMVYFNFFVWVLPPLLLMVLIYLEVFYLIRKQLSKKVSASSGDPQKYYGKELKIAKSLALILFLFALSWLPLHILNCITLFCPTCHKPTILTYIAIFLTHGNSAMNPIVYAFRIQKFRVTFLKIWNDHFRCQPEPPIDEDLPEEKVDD

## Nc1nc2ccc(Cl)cc2c2nc(-c3ccco3)nn12 [CGS-15943]
  Ki: 10 nM

Source: ChEMBL document CHEMBL1125524, “Adenosine A1 antagonists. 2. Structure-activity relationships on diuretic activities and protective effects against acute renal failure” (J Med Chem, 1992)
